The text below walks through data of patent publication US20240285787A1, “PEPTIDES COMPRISING N-FORMYL-HALOGENATED METHIONINE RESIDUES AND ENGINEERED ANTIBODY-PEPTIDE CONJUGATES THEREOF” (Eli Lilly and Company, priority 2021, published 2024).

This data set in a line: PK Parameters Using 2-Compartment Model. The source says:
Table printed on a drawing sheet, Fig. 10D
Title: PK Parameters Using 2-Compartment Model
The patent's description of the figure: FIG. 10A. Pharmacokinetics for trastuzumab.
FIG. 10B. Pharmacokinetics for trastuzumab conjugated to peptide FRM047.
FIG. 10C. Tabular data for results in FIG. 9A and FIG. 9B.
FIG. 10D. PK Parameters Using 2-Compartment Model for results in FIG. 9A and FIG. 9B.
First reader's note: Each column is one substance (trastuzumab parent antibody and its FRM047 peptide conjugate); the second left column holds the units.

Regarding Tmab, the “AUC0-inf |” value worked out at 25800 µg·h/mL, the “AUC0-t |” value was 12500 µg·h/mL, the “CL2 (Q) |” value was determined as 0.00021 L/h and the “CL (CL) |” value is 2.78e-06 L/h. Also, the “V2 (V2) |” value is 0.074 L/kg, the “Vc (V1) |” value turned out to be 0.056 L/kg and the “t1/2 | hr” value amounted to 27.1 days.
